Data: ChEMBL document CHEMBL1123058, “Synthesis of some quaternary ammonium alkylating agents and their effects on soman-inhibited acetylcholinesterase” (1985)

Test: Ratio of control/treated value of the compound

SMILES	Ratio
C[n+]1ccccc1CCl	< 1.3
C[n+]1ccc(CCN2C(=O)CCC2=O)cc1	1.02
C[n+]1ccccc1CCN1C(=O)CCC1=O	1.13
CCN(CC)CCc1cccc[n+]1C	1.07
CC[N+](C)(CC)CCc1ccncc1	< 2.09
CC1C=CN(C)c2c1c1c(n2C)CCC1OCCCl (stereo unspecified)	0.81
CC[N+](C)(CC)CCc1ccccn1	1.6
C[N+](C)(C)CCCCl	1.19
C[n+]1ccccc1CCC(O)CCl (stereo unspecified)	< 1.34
CC[N+](C)(CC)CC(=O)CCN1C(=O)CCC1=O	1.11
BrCCCCCC[n+]1ccccc1	0.98
